ChEMBL document CHEMBL1123273
This is a selection: effects in other tests are not listed, and their absence says nothing.

Experiment: Partition coefficient (logP)
Conditions: octanol/water

| SMILES | logP |
| --- | --- |
| CCC(=O)N(c1ccccc1)C1(COC)CCN(CCc2cccs2)CC1 | 3.95 |
| CCC(=O)N(c1ccccc1)C1(COC)CCN(CCn2nnn(CC)c2=O)CC1 | 2.16 |
